This is a selection: effects in other tests are not listed, and their absence says nothing.
Test system: nitrilase 1650
Test: Conversion of various nitriles with nitrilase 1650 (NH4 ions in supernatant, microtiter plate)
Assay type: biochemical, Alcaligenes faecalis 1650
Design: Activity: unit not given here
Conditions: 10 mM substrate, 2 g/l dry biomass, 30° C, 2 hours, pH 7.2

## 4-flourobenzyl cyanide
  % conversion: 100%
  Activity: 9.2
Average of a microtiter plate row
  μmol/l (amount of NH4 ions produced in the supernatant): 2222.9 µmol/L

— patent US6869783B1, “Method for producing chiral carboxylic acids from nitriles with the assistance of a nitrilase or microoganisms which contain a gene for the nitrilase” (BASF Aktiengesellschaft, priority 1998, dated 2005)
